Antibody variant affinities, Ab-14 heavy chain, assay 1

Binding partner: SARS-CoV-2 spike HR2 peptide, sequence PDVDLGDISGINAS.

Parent scFv Ab-14: VH joined to VL by three GGGGS repeats. Changes lie in the heavy chain CDRs alone.
VH: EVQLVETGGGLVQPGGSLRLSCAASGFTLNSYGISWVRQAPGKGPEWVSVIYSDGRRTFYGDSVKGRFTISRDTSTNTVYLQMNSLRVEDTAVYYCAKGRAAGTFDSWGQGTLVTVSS
VL: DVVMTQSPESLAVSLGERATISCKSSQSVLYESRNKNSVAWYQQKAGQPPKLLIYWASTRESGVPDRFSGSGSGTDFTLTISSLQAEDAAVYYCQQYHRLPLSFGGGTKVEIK

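The parent was found by panning a naive human phage display library on the peptide. The library (AAYL49) carries one to three amino acid substitutions per variant, with no insertions or deletions. In AlphaSeq, yeast of one mating type display the scFv and yeast of the other type display the target. Mating (16 h, 30 °C) was followed by selection of diploids and sequencing of their barcodes. Read counts were normalised to the haploid input and turned into Kd by a linear fit to BCL2-family pairs of known affinity, for each replicate. Each pool was mated in three replicate cultures.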

The parent's heavy chain CDRs are GFTLNSYGIS, VIYSDGRRTFYGDSVK, GRAAGTFDS; each variant's own CDRs replace them letter for letter.
Every variant below is changed at Y60 of the VH (sequential numbering).
The Kd shown is the geometric mean over detected replicates; a lower Kd is a better binder.
"nd" means that the variant was in the library but no mating with the target was seen in any replicate; the authors take this as a sign of poor binding, and no number exists.
Parent in this assay: reference entry 4.4 nM, copy in this library 13 µM (one replicate of three).
As a blank, each scFv also met three strains without target: over library AAYL49, 15% of these pairings were detected, typically at 11 µM and seldom below 680 nM. For each scFv, signals with the empty controls are counted beside the result.

GFTLNSYGIS, VIYSDGRRTFAGDSVK, GRAATTFDS: 2.6 µM (3 of 3 replicates; controls 2 of 9).
GFTLNSYGIS, VIYSDGRRTFMGDSVK, GRGAETFDS: nd (0 of 3 replicates; controls 0 of 9).
GFTLNFYGIS, VIYSDGRRTFTGDSVK, GRAAGTFDS: 600 nM (1 of 3 replicates; controls 0 of 9).
GFTLASYGIS, VIYSDGRRTFSGDSVK, GRAATTFDS: nd (0 of 3 replicates; controls 0 of 9).
GFTLNSTGIS, VIYSDGRRTFWGDSVK, GFAAGTFDS: nd (0 of 3 replicates; controls 1 of 9).
GFTLNSYGGE, VIYSDGRRTFKGDSVK, GRAAGTFDS: 12 µM (2 of 3 replicates; controls 0 of 9).
GFTLNSYGIW, VIYSDGRRTQDGDSVK, GRAAGTFDS: nd (0 of 3 replicates; controls 0 of 9).
GFTLNSDGIS, VIYSDGRRTFRGDSVK, GRAAGTFDS: nd (0 of 3 replicates; controls 0 of 9).
GFTLNSYMIS, VIYSDGRRTFFGDSVK, GRAAGTGDS: 360 nM (1 of 3 replicates; controls 1 of 9).
GFTLNSYGIS, VIYSDGRRTFEGDSVK, GRAAMTVDS: 60 µM (1 of 3 replicates; controls 1 of 9).

The last 2 entries again:

CDR-H1,CDR-H2,CDR-H3,Kd (apparent),replicates with signal,empty controls
GFTLNSYMIS,VIYSDGRRTFFGDSVK,GRAAGTGDS,360 nM,1/3,1/9
GFTLNSYGIS,VIYSDGRRTFEGDSVK,GRAAMTVDS,60 µM,1/3,1/9

From the AlphaSeq antibody data of Engelhart et al. 2022 (doi:10.1038/s41597-022-01779-4), copy in the FLAb collection.